Data published in BindingDB's records for doi:10.1021/jm101621u (University of Utah, 2011).

Sequences of proteins named here, by UniProt entry; tags and fusion partners are left off.
UniProt Q8NER1, whole entry: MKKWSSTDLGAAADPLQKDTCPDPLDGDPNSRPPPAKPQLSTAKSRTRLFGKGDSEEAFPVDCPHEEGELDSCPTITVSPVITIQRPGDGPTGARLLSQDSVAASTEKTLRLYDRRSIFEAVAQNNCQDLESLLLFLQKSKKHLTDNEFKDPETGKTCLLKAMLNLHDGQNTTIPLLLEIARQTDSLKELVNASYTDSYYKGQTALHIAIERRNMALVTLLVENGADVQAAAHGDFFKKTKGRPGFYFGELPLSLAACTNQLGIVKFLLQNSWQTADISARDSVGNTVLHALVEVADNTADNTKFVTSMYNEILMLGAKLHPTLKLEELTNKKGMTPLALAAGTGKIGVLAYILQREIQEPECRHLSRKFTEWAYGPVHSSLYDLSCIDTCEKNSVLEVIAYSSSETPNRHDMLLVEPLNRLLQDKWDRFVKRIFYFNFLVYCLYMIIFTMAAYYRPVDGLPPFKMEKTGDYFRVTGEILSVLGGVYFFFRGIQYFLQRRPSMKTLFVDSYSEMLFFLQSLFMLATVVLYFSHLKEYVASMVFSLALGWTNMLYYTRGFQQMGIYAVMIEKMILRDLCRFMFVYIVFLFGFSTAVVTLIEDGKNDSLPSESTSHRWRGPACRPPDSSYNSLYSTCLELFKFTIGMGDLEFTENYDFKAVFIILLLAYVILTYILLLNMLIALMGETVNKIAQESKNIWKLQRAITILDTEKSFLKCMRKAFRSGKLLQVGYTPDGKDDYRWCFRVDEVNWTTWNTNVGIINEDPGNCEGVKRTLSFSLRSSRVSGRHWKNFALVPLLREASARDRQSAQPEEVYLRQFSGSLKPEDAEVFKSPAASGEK

Molecular target: Transient receptor potential cation channel subfamily V member 1 (Homo sapiens, UniProt Q8NER1)
Experiment: Antagonist activity at human TRPV1 expressed in HEK293 cell assessed as inhibition of capsaicin-induced calcium flux by fluorometric analysis
Outline: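 Human wild-type TRPV1 transiently transfected into HEK-293 cells and cultured 48 h, then loaded with Fluo-4 at 37°C. […] Ca2+ fluorescence monitored 1 min; rate and ΔFmax expressed relative to capsaicin-only cells; n=3.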

IC50: 275 µM
SMILES: C/C=C(\NC(=O)[C@H](C)NC(=O)[C@@H](NC(=O)[C@H](NC(=O)[C@H](Cc1ccccc1)NC(=O)[C@@H](CC(C)C)NC(=O)[C@@H](Cc1ccccc1)NC(=O)CC)[C@@H](C)O)C(C)C)C(=O)O [Nobilamide B]
